Source: US20110306762A1, “ACID ADDITION SALT OF UDENAFIL, PREPARATION METHOD THEREOF AND PHARMACEUTICAL COMPOSITION COMPRISING THE SAME” (priority 2009, published 2011)

How the values were obtained:
Type in all cases: physicochemical
[1] = Solubility test in distilled water by HPLC
Description: To test the solubility of the acid addition salts of Udenafil in distilled water, the following experiments were preformed.
The analysis conditions for HPLC were as follows:
Detector: ultraviolet ray absorbance measured at wavelength 292 nm
Column: octadecyl silica gel C18 (4.6×150 mm, 5 μm)
Mobile phase: an aqueous solution of potassium dihydrogenphosphate (0.02M):acetonitrile=70:30

[2] = Hygroscopicity test of acid addition salts of Udenafil; conditions: exposed for 2 hours, room temperature, relative humidity 43%
[3] = Crystallinity test of acid addition salts of Udenafil; parameters: key: ◯: Formation of crystal; X: No formation of crystal
Protocol: The acid addition salts of Udenafil obtained in Examples 1 to 6 and Comparative Examples were tested for crystallinity and hygroscopicity as follows.
1) detecting whether the crystal is formed in the reaction solution, and
2) crystallization: detecting whether crystallization occurs after dissolving acid addition salt of Udenafil in a suitable solvent.

Benzenesulfonic Acid Addition Salt of Udenafil [Example 2]
Average of measured peak area ([1]; HPLC, UV 292 nm): 59,654 | First measured peak area ([1]; HPLC, UV 292 nm): 59,985 | second measured peak area ([1]; HPLC, UV 292 nm): 59,985 | third measured peak area ([1]; HPLC, UV 292 nm): 58,993 | Hygroscopicity (weight change ratio, %) [2]: 1.4%

Oxalic Acid Addition Salt of Udenafil [Example 1]
solubility in the distilled water [1]: remarkably excellent solubility

Cyclamic Acid Addition Salt of Udenafil [Example 6]
Crystallinity test 1-2 ([3]; crystallization: whether crystallization occurs after dissolving the salt in a suitable solvent): ◯ | Crystallinity test 1-1 ([3]; detecting whether the crystal is formed in the reaction solution): ◯ | Hygroscopicity (weight change ratio, %) [2]: 0.8%

Adipic Acid Addition Salt of Udenafil [Example 5]
solubility in the distilled water ([1]; listed as Udenafil adipiate): most excellent solubility | solubility in the distilled water ([1]; listed as Udenafil salt of adipic acid): remarkably excellent solubility | Hygroscopicity (weight change ratio, %) [2]: 0.9%

Read-outs that look alike come from different tables or passages of the source.
